The source of these data is patent US7495023B2, “Thio semicarbazone and semicarbozone inhibitors of cysteine proteases and methods of their use” (The Regents of the University of California, priority 2002, dated 2009).

Amino acid sequences for entries named in this document (tags omitted). Residues count along the entry.
UniProt P25779, 123-467: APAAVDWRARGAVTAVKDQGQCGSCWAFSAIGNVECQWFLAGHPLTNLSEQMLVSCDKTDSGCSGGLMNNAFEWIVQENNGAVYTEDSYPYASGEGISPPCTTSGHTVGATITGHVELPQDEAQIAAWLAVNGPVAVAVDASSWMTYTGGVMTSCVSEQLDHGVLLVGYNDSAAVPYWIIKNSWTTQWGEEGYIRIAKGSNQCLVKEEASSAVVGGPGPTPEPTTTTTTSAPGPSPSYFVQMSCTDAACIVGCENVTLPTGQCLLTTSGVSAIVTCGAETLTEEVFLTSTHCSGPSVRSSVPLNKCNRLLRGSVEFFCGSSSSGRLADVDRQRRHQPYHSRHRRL

This assay has as its target T. cruzi cathepsin L-like protease (cruzain) (Trypanosoma cruzi, UniProt P25779). Briefly: biochemical. Conditions: 5 min incubation, room temperature, pH 5.50; read-out: IC50 against cruzain. Here is the method: IC50 Determinations. Inhibitors were screened for effectiveness against the T. cruzi cathepsin L-like protease (cruzain) using purified recombinant protein. Cruzain (1 nM) was incubated with 20-50000 nM inhibitor in 100 mM sodium acetate-5 mM DTT buffer (pH 5.50, buffer A) for 5 min at room temperature. […] The increase in fluorescence (excitation at 355 nm and emission at 460 nm) was followed with an automated microtiter plate spectrofluorimeter (Molecular Devices, spectraMAX Gemini). Inhibitor stock solutions were prepared at 20 mM in DMSO, and serial dilutions were made in DMSO (0.7% DMSO in assay). Controls were performed using enzyme alone and enzyme with DMSO. IC50 values were determined graphically using inhibitor concentrations in the linear portion of a plot of inhibition versus log [I] (seven concentrations were tested, and at least two were in the linear range).

With `CCC(=NNC(N)=S)c1cccc(Br)c1` [Compound 1i, 3′-Bromopropiophenone Thio Semicarbazone], the IC50 worked out at 100 nM.
